Experiment [1] deals with T1, Kappa-type opioid receptor (Homo sapiens, UniProt P41145). Kind of experiment: Agonist activity at human kappa opioid receptor expressed in CHO cell membrane by [35S]GTP-gamma-S binding assay. The experiment is classed as functional, cell membranes. For orientation: GTPγS resists hydrolysis and so accumulates on activated G proteins.
Experiment [2] deals with T1, Kappa-type opioid receptor. Kind of experiment: Antagonist activity at human kappa opioid receptor expressed in CHO cell membrane assessed as inhibition of U50,488 induced [35S]GTPgammaS binding. The class given is functional, cell membranes.

Amino acid sequences for entries named in this document (tags omitted). A change or cut given only in a name is not applied to a line headed by its entry.
UniProt P41145: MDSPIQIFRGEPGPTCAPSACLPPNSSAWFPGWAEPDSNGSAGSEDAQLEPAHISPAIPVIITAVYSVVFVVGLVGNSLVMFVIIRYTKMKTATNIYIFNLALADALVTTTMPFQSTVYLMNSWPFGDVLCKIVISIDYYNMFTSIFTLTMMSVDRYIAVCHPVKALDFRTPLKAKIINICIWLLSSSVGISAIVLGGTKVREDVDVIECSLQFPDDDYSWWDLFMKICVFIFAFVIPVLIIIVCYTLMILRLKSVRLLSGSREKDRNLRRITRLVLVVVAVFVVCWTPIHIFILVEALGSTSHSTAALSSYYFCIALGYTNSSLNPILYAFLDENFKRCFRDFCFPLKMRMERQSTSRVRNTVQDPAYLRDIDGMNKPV

The source made the active and inactive calls. The calls are words filed in the database; no cut-off is given here.

In the case of `C[C@H]1C2Cc3ccc(C(=O)NCCc4ccc(-c5ccccc5)cc4)cc3[C@@]1(C)CCN2CC1CC1`, the Emax – broadly, the size of the effect at its maximum, as opposed to the concentration needed – in experiment [1] was determined as 87%. In experiment [2], the result was inactive.

Values taken from ChEMBL document CHEMBL1140563, “Redefining the structure-activity relationships of 2,6-methano-3-benzazocines. 5. Opioid receptor binding properties of N-((4'-phenyl)-phenethyl) analogues of 8-CAC” (Bioorg Med Chem Lett, 2007).
